Assay results reported in patent US20220257752A1, “NEW USE OF CYCLIC DINUCLEOTIDES” (priority 2019, published 2022).

Test system: CD4+ and CD8+ T cell populations
Test: Mouse vaccination with OVA and adjuvant: intracellular cytokine staining of antigen-specific T cells
Conditions: for CD8+ T cell responses for any cytokine or its combinations: mice vaccinated as adults (prime + 2 boosts); for effect of a neonatal dose on multiple cytokine producers: neonatal dose given versus skipped

Row | SMILES | frequency of multifunctional T cells expressing IFN-γ, TNF-α and IL-2 (i.n. vaccination with OVA, neonatal prime + 2 boosts) | CD8+ T cell responses for any cytokine or its combinations | CD4+ T cells that produce any combination of IFN-γ, TNF-α, IL-17 and IL-2 (neonatal dose compared to neonatal dose skipped or adult controls) | effect of a neonatal dose on multiple cytokine producers | multifunctional CD8+ T cells (neonatal priming compared to neonatal dose skipped) | frequency of triple cytokine producers (IFN-γ, TNF-α and IL-2) among CD8+ T cells (administered at neonatal age) | frequency of triple, double and single cytokine producers (neonatal dose compared with group where neonatal dose was skipped) | stimulation of multifunctional T cells (neonatal priming versus priming at a later age) | vaccination potency by sub-cutaneous route (sub-cutaneous vaccination, versus alum salts)
1 | CCOCc1nc2c(N)nc3ccccc3c2n1CC(C)(C)O [R848, reference compound] | did not significantly increase | responses were stronger | reduced | negative effects | reduced | – | – | – | –
2 | Nc1ncnc2c1ncn2[C@@H]1O[C@@H]2COP(=O)(O)O[C@H]3[C@@H](O)[C@H](n4cnc5c(N)ncnc54)O[C@@H]3COP(=O)(O)O[C@H]2[C@H]1O [CDA, cyclic bis(3′-5′)diadenylic acid] | – | responses were stronger | – | beneficial effects | – | increased | increased | better stimulation | superiority to alum salts
